Assays:
human TLR7 = human TLR7 (Homo sapiens, UniProt Q9NYK1); test: TLR7 inhibition reporter assay (HEK-Blue cells, SEAP reporter, gardiquimod stimulation); details: read-out: TLR7 IC50; HEK-Blue cells overexpressing human TLR7, SEAP reporter, gardiquimod 7.5 μM
Protocol: (§1) TLR7/8/9 Inhibition Reporter Assays
(§2) HEK-Blue™-cells (Invivogen) overexpressing human TLR7, TLR8 or TLR9 receptors were used for screening inhibitors of these receptors using an inducible SEAP (secreted embryonic alkaline phosphatase) reporter gene under the control of the IFN-β minimal promoter fused to five NF-κB and AP-1-binding sites. Briefly, cells are seeded into Greiner 384 well plates (15000 cells per well for TLR7, 20,000 for TLR8 and 25,000 for TLR9) and then treated with test compounds in DMSO to yield a final dose response concentration range of 0.05 nM-50 μM. After a 30 minute compound pre-treatment al room temperature, the cells are then stimulated with a TLR7 ligand (gardiquimod at a final concentration of 7.5 μM), TLR8 ligand (R848 at a final concentration of 15.9 μM) or TLR9 ligand (ODN2006 at a final concentration of 5 nM) to activate NF-κB and AP-1 which induce the production of SEAP. After a 22 hour incubation at 37° C., 5% CO2, SEAP levels are determined with the addition of HEK-Blue™ Detection reagent (Invivogen), a cell culture medium that allows for detection of SEAP, according to manufacturer's specifications. The percent inhibition is determined as the % reduction in the HEK-Blue signal present in wells treated with agonist plus DMSO alone compared to wells treated with a known inhibitor.

By UniProt entry, the sequences of proteins in these tests, tags left out. Residues count along the entry.
UniProt Q9NYK1, 27-1049 limits assumed: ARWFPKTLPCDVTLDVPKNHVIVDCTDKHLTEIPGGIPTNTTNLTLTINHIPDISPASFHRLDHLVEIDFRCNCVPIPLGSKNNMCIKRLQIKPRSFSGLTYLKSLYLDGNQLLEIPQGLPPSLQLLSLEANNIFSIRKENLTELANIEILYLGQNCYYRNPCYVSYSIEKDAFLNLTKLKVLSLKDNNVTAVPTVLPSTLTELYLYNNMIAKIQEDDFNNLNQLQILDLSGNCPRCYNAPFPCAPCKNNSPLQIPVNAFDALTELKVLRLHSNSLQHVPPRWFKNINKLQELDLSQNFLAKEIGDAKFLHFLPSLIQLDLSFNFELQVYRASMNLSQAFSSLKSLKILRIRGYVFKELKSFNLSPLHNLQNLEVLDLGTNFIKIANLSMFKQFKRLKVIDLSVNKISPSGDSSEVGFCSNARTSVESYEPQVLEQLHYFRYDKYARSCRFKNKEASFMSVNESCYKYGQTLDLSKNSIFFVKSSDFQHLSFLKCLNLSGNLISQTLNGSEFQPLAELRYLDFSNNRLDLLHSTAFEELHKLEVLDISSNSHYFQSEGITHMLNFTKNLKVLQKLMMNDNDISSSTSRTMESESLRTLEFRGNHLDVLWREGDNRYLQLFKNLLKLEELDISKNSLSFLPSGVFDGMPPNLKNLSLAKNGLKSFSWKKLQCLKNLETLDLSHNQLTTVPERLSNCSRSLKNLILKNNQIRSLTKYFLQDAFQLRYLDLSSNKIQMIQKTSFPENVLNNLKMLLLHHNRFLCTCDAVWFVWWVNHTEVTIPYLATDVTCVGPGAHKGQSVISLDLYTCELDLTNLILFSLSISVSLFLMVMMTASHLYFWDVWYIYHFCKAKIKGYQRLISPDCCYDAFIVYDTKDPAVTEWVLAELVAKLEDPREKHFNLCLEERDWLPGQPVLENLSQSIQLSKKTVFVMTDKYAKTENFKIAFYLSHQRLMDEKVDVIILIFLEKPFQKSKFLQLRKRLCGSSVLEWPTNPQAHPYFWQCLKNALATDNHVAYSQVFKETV
UniProt Q9NR97, 27-1041 limits assumed: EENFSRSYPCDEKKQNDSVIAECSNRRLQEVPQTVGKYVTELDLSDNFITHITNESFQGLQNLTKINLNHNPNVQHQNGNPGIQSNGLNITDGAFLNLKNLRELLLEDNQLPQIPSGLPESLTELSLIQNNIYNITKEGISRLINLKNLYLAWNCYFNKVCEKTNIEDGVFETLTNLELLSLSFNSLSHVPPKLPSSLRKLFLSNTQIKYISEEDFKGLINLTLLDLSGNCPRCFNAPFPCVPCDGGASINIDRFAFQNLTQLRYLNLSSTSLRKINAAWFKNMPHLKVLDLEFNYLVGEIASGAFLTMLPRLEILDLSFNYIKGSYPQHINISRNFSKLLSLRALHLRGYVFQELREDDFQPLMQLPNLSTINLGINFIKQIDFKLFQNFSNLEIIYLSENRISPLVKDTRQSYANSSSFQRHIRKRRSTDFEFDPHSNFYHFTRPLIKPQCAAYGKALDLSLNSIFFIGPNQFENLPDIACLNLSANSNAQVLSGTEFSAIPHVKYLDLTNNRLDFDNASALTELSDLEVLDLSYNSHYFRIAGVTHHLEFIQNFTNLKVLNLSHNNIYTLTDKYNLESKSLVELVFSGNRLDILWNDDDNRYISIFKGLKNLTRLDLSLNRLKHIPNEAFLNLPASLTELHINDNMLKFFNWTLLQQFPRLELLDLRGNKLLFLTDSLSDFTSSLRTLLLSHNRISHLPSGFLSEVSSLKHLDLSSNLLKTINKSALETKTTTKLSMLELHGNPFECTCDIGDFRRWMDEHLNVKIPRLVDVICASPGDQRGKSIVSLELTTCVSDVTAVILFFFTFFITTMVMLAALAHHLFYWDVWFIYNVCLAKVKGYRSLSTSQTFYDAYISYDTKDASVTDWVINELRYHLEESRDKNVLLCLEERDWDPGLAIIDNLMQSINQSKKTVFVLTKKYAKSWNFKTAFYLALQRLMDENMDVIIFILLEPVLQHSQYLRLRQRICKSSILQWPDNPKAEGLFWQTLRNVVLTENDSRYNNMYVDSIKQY
UniProt Q9NR96, 26-1032 limits assumed: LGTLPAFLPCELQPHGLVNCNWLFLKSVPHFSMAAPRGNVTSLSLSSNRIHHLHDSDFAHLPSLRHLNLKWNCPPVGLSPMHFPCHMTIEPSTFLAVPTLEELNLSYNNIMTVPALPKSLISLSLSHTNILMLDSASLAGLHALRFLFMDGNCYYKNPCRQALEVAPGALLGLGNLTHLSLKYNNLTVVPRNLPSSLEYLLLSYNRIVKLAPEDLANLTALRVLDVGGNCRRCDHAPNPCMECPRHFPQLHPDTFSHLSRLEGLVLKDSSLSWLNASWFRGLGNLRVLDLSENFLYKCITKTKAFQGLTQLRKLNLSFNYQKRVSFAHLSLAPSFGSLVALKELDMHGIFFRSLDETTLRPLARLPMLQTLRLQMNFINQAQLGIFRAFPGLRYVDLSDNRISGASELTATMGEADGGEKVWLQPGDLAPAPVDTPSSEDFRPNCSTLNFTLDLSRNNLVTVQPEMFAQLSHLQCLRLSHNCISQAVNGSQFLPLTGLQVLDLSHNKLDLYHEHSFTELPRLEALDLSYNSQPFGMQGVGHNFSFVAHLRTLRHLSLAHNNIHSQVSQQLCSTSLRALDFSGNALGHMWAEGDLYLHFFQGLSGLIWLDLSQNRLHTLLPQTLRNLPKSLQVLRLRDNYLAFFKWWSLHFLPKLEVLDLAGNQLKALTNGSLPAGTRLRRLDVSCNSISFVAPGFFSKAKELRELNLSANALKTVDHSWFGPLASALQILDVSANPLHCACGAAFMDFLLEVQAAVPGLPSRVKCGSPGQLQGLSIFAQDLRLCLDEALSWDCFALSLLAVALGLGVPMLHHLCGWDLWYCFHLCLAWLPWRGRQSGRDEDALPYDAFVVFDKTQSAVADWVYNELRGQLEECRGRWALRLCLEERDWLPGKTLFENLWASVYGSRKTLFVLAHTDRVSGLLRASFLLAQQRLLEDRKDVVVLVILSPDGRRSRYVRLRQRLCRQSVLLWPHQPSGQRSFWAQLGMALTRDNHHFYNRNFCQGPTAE

human TLR8 = human TLR8 (Homo sapiens, UniProt Q9NR97); test: TLR8 inhibition reporter assay (HEK-Blue cells, SEAP reporter, R848 stimulation); details: read-out: TLR8 IC50; HEK-Blue cells overexpressing human TLR8, SEAP reporter, R848 15.9 μM
Protocol: as §1, §2

human TLR9 = human TLR9 (Homo sapiens, UniProt Q9NR96); test: TLR9 inhibition reporter assay (HEK-Blue cells, SEAP reporter, ODN2006 stimulation); assay type: cell-based; details: read-out: TLR9 IC50; HEK-Blue cells overexpressing human TLR9, SEAP reporter, ODN2006 5 nM
Protocol: as §1, §2

| Structure (SMILES) | IC50 (human TLR7) | IC50 (human TLR8) | IC50 (human TLR9) |
| --- | --- | --- | --- |
| COc1cc(-c2[nH]c3ccc(C4CN(CC(=O)N(C)C)CCO4)cc3c2C(C)C)cn2ncnc12 (stereo not drawn) [Example 314] | 18 nM | 50 nM | > 50000 nM |
| COc1ccc(-c2[nH]c3ccc(C4CCC5CC(C4)N5C(=O)CN(C)C)cc3c2C(C)C)cc1OC (stereo not drawn) | 15 nM | 111 nM | 1160 nM |
| Cc1c(-c2[nH]c3ccc(C4CCCN(CC(C)(C)O)C4)cc3c2C(C)C)cn2ncnc2c1C (stereo not drawn) | 19 nM | 5.1 nM | 5860 nM |
| Cc1c(-c2[nH]c3ccc(C4CC(NC(=O)CN(C)C)C4)cc3c2C(C)C)cn(C)c(=O)c1C (stereo not drawn) [Example 490] | 20 nM | 4.7 nM | > 50000 nM |
| Cc1c(-c2[nH]c3ccc(C4CN(CCNS(C)(=O)=O)C4)cc3c2C(C)C)cn2ncnc2c1C | 2 nM | 2.1 nM | 2550 nM |

Source: patent US11878975B2, “Substituted indole compounds useful as TLR inhibitors” (BRISTOL-MYERS SQUIBB COMPANY, priority 2017, dated 2024)
